The target of this assay is T1, Nitric oxide synthase 3 (Bos taurus, UniProt P29473).
T1 sequence (P29473 whole entry): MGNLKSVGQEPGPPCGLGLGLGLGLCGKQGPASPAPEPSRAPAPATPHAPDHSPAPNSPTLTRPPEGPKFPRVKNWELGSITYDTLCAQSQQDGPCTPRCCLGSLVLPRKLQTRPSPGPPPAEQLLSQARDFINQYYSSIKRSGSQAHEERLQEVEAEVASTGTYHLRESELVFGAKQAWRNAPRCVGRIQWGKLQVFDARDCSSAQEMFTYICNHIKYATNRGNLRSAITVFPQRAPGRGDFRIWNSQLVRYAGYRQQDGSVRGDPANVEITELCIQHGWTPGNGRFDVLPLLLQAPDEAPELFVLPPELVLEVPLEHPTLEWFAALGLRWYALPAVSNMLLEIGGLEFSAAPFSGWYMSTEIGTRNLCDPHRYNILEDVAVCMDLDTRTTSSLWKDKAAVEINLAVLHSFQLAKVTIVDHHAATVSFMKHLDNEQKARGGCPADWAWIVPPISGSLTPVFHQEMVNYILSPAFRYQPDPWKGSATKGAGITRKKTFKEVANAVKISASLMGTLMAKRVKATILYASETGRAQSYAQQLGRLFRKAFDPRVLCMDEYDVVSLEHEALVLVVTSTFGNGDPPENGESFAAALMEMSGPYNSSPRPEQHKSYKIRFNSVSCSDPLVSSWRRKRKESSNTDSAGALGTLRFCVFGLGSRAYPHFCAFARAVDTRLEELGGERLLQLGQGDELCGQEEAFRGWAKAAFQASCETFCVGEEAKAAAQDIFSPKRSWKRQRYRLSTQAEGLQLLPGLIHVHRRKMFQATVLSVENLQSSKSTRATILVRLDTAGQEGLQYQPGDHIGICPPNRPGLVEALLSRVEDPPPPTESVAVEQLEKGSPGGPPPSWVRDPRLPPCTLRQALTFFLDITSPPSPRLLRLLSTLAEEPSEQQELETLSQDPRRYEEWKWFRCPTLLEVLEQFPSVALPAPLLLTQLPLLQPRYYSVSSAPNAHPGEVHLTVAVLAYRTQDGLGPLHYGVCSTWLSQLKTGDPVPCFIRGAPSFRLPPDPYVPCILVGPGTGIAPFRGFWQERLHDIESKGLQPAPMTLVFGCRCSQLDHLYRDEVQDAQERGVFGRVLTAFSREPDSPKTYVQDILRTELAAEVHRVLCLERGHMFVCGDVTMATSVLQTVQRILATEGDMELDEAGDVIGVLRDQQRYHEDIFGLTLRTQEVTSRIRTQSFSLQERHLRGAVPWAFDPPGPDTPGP
Nature of the assay: Inhibition of bovine recombinant eNOS expressed in Escherichia coli assessed as nitric oxide production by hemoglobin capture assay.

For `NC(=O)[C@@H]1C[C@@H](NC(=O)[C@@H](N)CCC/N=C(\N)N[N+](=O)[O-])CN1`, the inhibition constant Ki was 72 µM.

The Ki is the dissociation constant of the complex between target and ligand, obtained from inhibition or displacement.

The values above are taken from ChEMBL document CHEMBL1142908, “Selective L-nitroargininylaminopyrrolidine and L-nitroargininylaminopiperidine neuronal nitric oxide synthase inhibitors” (Bioorg Med Chem, 2007).
